Like-named read-outs stand apart in the source and are kept apart here.
Key:
HEK 293T cells = experiment: Cell viability of HEK 293T cells; settings: at 50 mM (so in the source)
APT2 = APT2 (Homo sapiens, UniProt O95372); experiment: APT2 enzymatic assay, resorufin acetate as fluorogenic substrate; format: biochemical
SMAD2 palmitoylation = SMAD2 palmitoylation in HEK 293T cells (Alk14 labeling, in-gel fluorescence); format: cell-based; settings: inhibitors at 25 μM, 6 h
APT1 = APT1 (Homo sapiens, UniProt O75608); experiment: APT1 enzymatic assay, resorufin acetate as fluorogenic substrate; format: biochemical; settings: read-out: IC50 (μM) APT1
STAT3 palmitoylation = STAT3 palmitoylation in HEK 293T cells transfected with STAT3, APT2 and DHHC7; format: cell-based; settings: inhibitors at 25 μM for 16 hours
[1] = read-out: IC50 (μM) APT2, Table 2, class symbols
[2] = Table 1, resorufin acetate as the substrate

The chains behind the UniProt entries cited, without tags or fusion partners.
UniProt O95372, whole entry: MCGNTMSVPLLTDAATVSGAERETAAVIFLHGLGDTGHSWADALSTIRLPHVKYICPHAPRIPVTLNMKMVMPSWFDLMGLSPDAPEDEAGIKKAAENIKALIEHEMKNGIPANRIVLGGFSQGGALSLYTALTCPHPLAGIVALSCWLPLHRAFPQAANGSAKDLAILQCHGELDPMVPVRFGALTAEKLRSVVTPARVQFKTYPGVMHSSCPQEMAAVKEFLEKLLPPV
UniProt O75608, whole entry: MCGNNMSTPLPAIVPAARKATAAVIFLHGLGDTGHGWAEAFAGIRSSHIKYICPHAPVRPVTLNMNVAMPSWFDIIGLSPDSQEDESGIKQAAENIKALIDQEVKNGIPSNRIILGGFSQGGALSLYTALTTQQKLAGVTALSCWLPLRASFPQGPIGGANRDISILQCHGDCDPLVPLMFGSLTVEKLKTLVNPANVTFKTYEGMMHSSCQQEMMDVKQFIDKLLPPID

SMILES	effect on cell viability (HEK 293T cells)	time-dependent inhibition of APT2 (APT2; pre-incubation 30 min versus standard)	IC50 (APT2; read-out: IC50 (μM) APT2, Table 1, resorufin acetate as the substrate) [µM]	IC50 (APT2; [1]) [µM]	IC50 (APT2; read-out: IC50 (μM) APT2 with 30 min preincubation, 30 min preincubation with APT2 before adding resorufin acetate) [µM]	IC50 (APT2; read-out: IC50 (μM) APT2 with 30 min preincubation, Table 2, class symbols, 30 min preincubation) [µM]	SMAD2 palmitoylation level (SMAD2 palmitoylation)	IC50 (APT1; [2]) [µM]	IC50 (APT1; Table 2, class symbols) [µM]	STAT3 palmitoylation level (acylation normalized by STAT3 protein) (STAT3 palmitoylation)
CCOP(=O)(F)c1cc2cc(C(=O)N3CCN(c4ccc(OC)cc4)CC3)sc2c2ccccc12 (stereo not drawn)	no effect	time-dependent inhibition	1.42	1 to 40	0.6	0.1 to 1	slightly better than ML349	1.06	1 to 40	slightly better than ML349
CCOP(=O)(F)CCc1ccc(C(=O)N2CCN(c3ccc(OC)cc3)CC2)cc1 (stereo not drawn)				1 to 40				> 200		
